Our source for the IC50 and EC50 values is US9388142B2, “Quinazolinone derivatives as PARP inhibitors” (MERCK PATENT GMBH, priority 2012, dated 2016).

The chains behind the UniProt entries cited, without tags or fusion partners. Residues count along the entry.
UniProt Q9H2K2, 873-1166: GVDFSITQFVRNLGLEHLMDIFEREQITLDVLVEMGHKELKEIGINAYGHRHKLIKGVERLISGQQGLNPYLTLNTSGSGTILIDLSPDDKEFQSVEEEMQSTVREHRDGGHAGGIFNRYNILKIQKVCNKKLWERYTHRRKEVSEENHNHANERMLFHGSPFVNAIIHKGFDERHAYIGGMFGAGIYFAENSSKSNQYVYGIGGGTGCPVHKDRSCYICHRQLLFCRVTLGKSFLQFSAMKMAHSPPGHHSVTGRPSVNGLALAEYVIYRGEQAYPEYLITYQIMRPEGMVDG

Assay [1] has as its target GST-tagged Tnks-2 (873-1166 aa) (Homo sapiens, UniProt Q9H2K2). Description: biochemical. As for the experimental part: Description of the TNKS1 and TNKS2 ELISA Assay
Then the activity assay with biotinylated NAD is performed in the absence/presence of the compounds. During the enzymatic reaction GST tagged TNKS transfers biotinylated ADP-ribose to itself from biotinylated NAD as co-substrate. For the detection streptavidin-HRP conjugate is added that binds to the biotinylated TNKS and is thereby captured to the plates. The amount of biotinylated resp. autoparsylated TNKS is detected with a luminescence substrate for HRP. The level of the luminescence signal correlates directly with the amount of autoparsylated TNKS and therefore with activity of TNKS.
The activity ELISA is performed in 384 well Glutathione coated microtiter plates (Express capture Glutathione coated plate, Biocat, Heidelberg, Germany). The plates are pre-equilibrated with PBS. […] The plates are washed 3 times with PBS-Tween-20. The wells are blocked by incubation at room temperature for 20 minutes with 50 μl blocking buffer (PBS, 0.05% Tween-20, 0.5% BSA). Afterwards the plates are washed 3 times with PBS-Tween-20. […] The reaction is stopped by 3 times washing with PBS-Tween-20. For the detection 50 μl of 20 ng/μl Streptavidin, HRP conjugate (MoBiTec, Gottingen, Germany) in PBS/0.05% Tween-20/0.01% BSA are added and the plates are incubated for 30 minutes at room temperature. After three times washing with PBS-Tween-20 50 μl of SuperSignal ELISA Femto Maximum sensitivity substrate solution (ThermoFisherScientific (Pierce), Bonn, Germany) are added. Following a 1 minute incubation at room temperature luminescence signals are measured with an Envision multimode reader (Perkin Elmer LAS Germany GmbH) at 700 nm. The full value used is the inhibitor-free reaction. […] The inhibitory values (IC50) are determined using either the program Symyx Assay Explorer® or Condosseo® from GeneData.

The test system of another assay is tankyrase 1/2. Briefly: Cellular inhibition of tankyrase: increase of Axin2 level in DLD1 cells (Luminex). The format is cell-based. To be noted: 24 hours, read-out: EC50 tankyrase 1/2 (cell assay). As for the experimental part:
Measurement of Cellular Inhibition of Tankyrase
Cells of the colon carcinoma cell line DLD1 are plated in 96 well plates with 1.5×10^4 cells per well. Next day, cells are treated with a serial dilution of test compound in seven steps as triplicates with a final DMSO concentration of 0.3%. After 24 hours, cells are lysed in lysis buffer (20 mM Tris/HCl pH 8.0, 150 mM NaCl, 1% NP40, 10% Glycerol) and lysates are cleared by centrifugation through a 96 well filter plate (0.65 μm). […] The amount of isolated Axin2 protein is determined in a Luminex^200 machine (Luminex Corporation) according to the manufacturer's instruction by counting 100 events per well. […] For analysis, the obtained data are normalized against the untreated solvent control and fitted for determination of the EC50 values using the Assay Explorer software (Accelrys).

In assay [2] the target is GST-tagged Tankyrase-2 (873-1166 aa) (Homo sapiens, UniProt Q9H2K2). Description: biochemical. The text has this: aq (aqueous), h (hour), g (gram), L (liter), mg (milligram), MHz (Megahertz), min. (minute), mm (millimeter), mmol (millimole), mM (millimolar), m.p. (melting point), eq (equivalent), mL (milliliter), L (microliter), ACN (acetonitrile), AcOH (acetic acid), CDCl3 (deuterated chloroform), CD3OD (deuterated methanol), CH3CN (acetonitrile), c-hex (cyclohexane), DCC (dicyclohexyl carbodiimide), DCM (dichloromethane), DIC (diisopropyl carbodiimide), DIEA (diisopropylethyl-amine), DMF (dimethylformamide), DMSO (dimethylsulfoxide), DMSO-d6 (deuterated dimethylsulfoxide), EDC (1-(3-dimethyl-amino-propyl)-3-ethylcarbodiimide), ESI (Electro-spray ionization), EtOAc (ethyl acetate), Et2O (diethyl ether), EtOH (ethanol), HATU (dimethylamino-([1,2,3]triazolo[4,5-b]pyridin-3-yloxy)-methylene]-dimethylammonium hexafluorophosphate), HPLC (High Performance Liquid Chromatography), i-PrOH (2-propanol), K2CO3 (potassium carbonate), LC (Liquid Chromatography), MeOH (methanol), MgSO4 (magnesium sulfate), MS (mass spectrometry), MTBE (Methyl tert-butyl ether), NaHCO3 (sodium bicarbonate), NaBH4 (sodium borohydride), NMM (N-methyl morpholine), NMR (Nuclear Magnetic Resonance), PyBOP (benzotriazole-1-yl-oxy-trispyrrolidino-phosphonium hexafluorophosphate), RT (room temperature), Rt (retention time), SPE (solid phase extraction), TBTU (2-(1-H-benzotriazole-1-yl)-1,1,3,3-tetramethyluromium tetrafluoro borate), TEA (triethylamine), TFA (trifluoroacetic acid), THF (tetrahydrofuran), TLC (Thin Layer Chromatography), UV (Ultraviolet). Description of the In Vitro Assays Abbreviations: GST=Glutathione-S-transferase FRET=Fluorescence resonance energy transfer HTRF®=(homogenous time resolved fluorescence) HEPES=4-(2-hydroxyethyl)-1-piperazine ethanesulfonic acid buffer DTT=Dithiothreitol BSA=bovine serum albumin CHAPS=detergent; CHAPS=3[(3-cholamidopropyl)dimethylammonio]-1-propanesulfonate Streptavidin-XLent® is a high grade streptavidin-XL665 conjugate for which the coupling conditions have been optimized to yield a conjugate with enhanced performances for some assays, particularly those requiring high sensitivity.
The autoparsylation assay is run in two steps: the enzymatic reaction in which GST-tagged Tankyrase-1, resp Tankyrase-2 transferred biotinylated ADP-ribose to itself from biotinylated NAD as co-substrate and the detection reaction where a time resolved FRET between cryptate labelled anti-GST bound to the GST tag of the enzyme and Xlent® labelled-streptavidin bound the biotin-parsylation residue is analysed. The autoparsylation activity was detectable directly via the increase in HTRF signal.
The autoparsylation assay is performed as 384-well HTRF® (Cisbio, Codolet, France) assay format in Greiner low volume nb 384-well microtiter plates and is used for high throughput screen. […] The reaction is stopped by the addition of 1 μl 50 mM EDTA solution. […] The ratio of the emission signals is determined. The full value used is the inhibitor-free reaction. […] The inhibitory values (IC50) are determined using either the program Symyx Assay Explorer® or Condosseo® from GeneData.

Molecules are shown by their SMILES. Structures can show the parent of a compound that is named as a salt.

The IC50 is the point on the concentration scale where inhibition reaches its midpoint. Consider `CC(C)(O)c1ccc(-c2nc3ccc(Cl)cc3c(=O)[nH]2)cc1` [Compound A5, 6-chloro-2-[4-(1-hydroxy-1-methyl-ethyl)-phenyl]-3H-quinazolin-4-one], for which the IC50 in assay [1] is < 300 nM; in assay [2] it was 300 to 3000 nM. Further, the EC50 in the assay on tankyrase 1/2 lay within 3000 to 50000 nM.

For `Cc1cc(F)cc2c(=O)[nH]c(-c3ccc(C(C)(C)OCCO)cc3)nc12` [Compound A21, 6-fluoro-2-{4-[1-(2-hydroxy-ethoxy)-1-methyl-ethyl]-phenyl}-8-methyl-3H-quinazolin-4-one], the IC50 is < 300 nM in assay [1] and 300 to 3000 nM in assay [2]. In addition, the EC50 in the assay on tankyrase 1/2 is < 300 nM.

With `CC(C)(O)c1ccc(-c2nc3c(Cl)cccc3c(=O)[nH]2)cc1` [Compound A6, 8-chloro-2-[4-(1-hydroxy-1-methyl-ethyl)-phenyl]-3H-quinazolin-4-one], the IC50 in assay [1] and in assay [2] was < 300 nM each time.

On to `CC(C)(O)c1ccc(-c2nc3cccc(Cl)c3c(=O)[nH]2)cc1` [Compound A23, 5-chloro-2-[4-(1-hydroxy-1-methyl-ethyl)-phenyl]-3H-quinazolin-4-one], for which the results for the IC50 in assay [1] and in assay [2] were < 300 nM and 300 to 3000 nM, respectively. Besides, the EC50 in the assay with tankyrase 1/2 was in the range of 300 to 3000 nM.

Regarding `CC(C)(O)c1ccc(-c2nc3ccc(F)cc3c(=O)[nH]2)cc1` [Compound A1, 6-fluoro-2-[4-(1-hydroxy-1-methyl-ethyl)-phenyl]-3H-quinazolin-4-one], the figures for the IC50 in assay [1] and in assay [2] were < 300 nM and 300 to 3000 nM, respectively. The EC50 in the assay with tankyrase 1/2 is < 300 nM.

Consider `CC(C)(OCCO)c1ccc(-c2nc3ccc(F)cc3c(=O)[nH]2)cc1` [Compound A7, 6-fluoro-2-{4-[1-(2-hydroxy-ethoxy)-1-methyl-ethyl]-phenyl}-3H-quinazolin-4-one], for which the IC50 in assay [1] was < 300 nM; in assay [2], 300 to 3000 nM. The EC50 in the assay on tankyrase 1/2 lay within 300 to 3000 nM.

In the case of `Cc1cccc2c(=O)[nH]c(-c3ccc(C(C)(C)O)cc3)nc12` [Compound A24, 2-[4-(1-hydroxy-1-methyl-ethyl)-phenyl]-8-methyl-3H-quinazolin-4-one], the IC50 in assay [1] and in assay [2] was < 300 nM each time. Further, the EC50 with tankyrase 1/2 was < 300 nM.

As for `CC(C)(O)c1ccc(-c2nc3cccc(F)c3c(=O)[nH]2)cc1` [Compound A4, 5-fluoro-2-[4-(1-hydroxy-1-methyl-ethyl)-phenyl]-3H-quinazolin-4-one], the IC50 in assay [1] and in assay [2] was < 300 nM throughout. The EC50 in the assay on tankyrase 1/2 was in the range of 300 to 3000 nM.

In the case of `CN1CCN(c2ccc(-c3nc4ccc(F)cc4c(=O)[nH]3)cc2)CC1` [Compound A10, 6-fluoro-2-[4-(4-methyl-piperazin-1-yl)-phenyl]-3H-quinazolin-4-one], the concentration for half-maximal inhibition (IC50) in assay [1] was < 300 nM; in assay [2], 300 to 3000 nM. The EC50 with tankyrase 1/2 lay within 300 to 3000 nM.

With `COc1cccc2c(=O)[nH]c(-c3ccc(C(C)(C)O)cc3)nc12` [Compound A2, 2-[4-(1-hydroxy-1-methyl-ethyl)-phenyl]-8-methoxy-3H-quinazolin-4-one], in the assay with tankyrase 1/2, the EC50 was in the range of 300 to 3000 nM.

Take `COCCOC(C)(C)c1ccc(-c2nc3ccc(F)cc3c(=O)[nH]2)cc1` [Compound A8, 6-fluoro-2-{4-[1-(2-methoxy-ethoxy)-1-methyl-ethyl]-phenyl}-3H-quinazolin-4-one]: the values for the IC50 in assay [1] and in assay [2] were < 300 nM and 300 to 3000 nM, respectively. In the assay on tankyrase 1/2, the EC50 fell in the range of 300 to 3000 nM.

As to `CC(C)(O)c1ccc(-c2nc3c(F)ccc(F)c3c(=O)[nH]2)cc1` [Compound A27, 5,8-difluoro-2-[4-(1-hydroxy-1-methyl-ethyl)-phenyl]-3H-quinazolin-4-one], the EC50 in the assay with tankyrase 1/2 fell in the range of 300 to 3000 nM. Moreover, in assay [2], the IC50 lay within 300 to 3000 nM.

Turning to `O=c1[nH]c(-c2ccc(C3CCNCC3)cc2)nc2c(F)cc(F)cc12` [Compound A34, 6,8-difluoro-2-(4-piperidin-4-yl-phenyl)-3H-quinazolin-4-one hydrochloride], in the assay with tankyrase 1/2, the EC50 fell in the range of 300 to 3000 nM. In assay [2], this molecule had an IC50 of 300 to 3000 nM.

Regarding `Cc1cc(F)cc2c(=O)[nH]c(-c3ccc(C(C)(C)O)cc3)nc12` [Compound A25, 6-fluoro-2-[4-(1-hydroxy-1-methyl-ethyl)-phenyl]-8-methyl-3H-quinazolin-4-one], the IC50 in assay [1] and in assay [2] was < 300 nM each time. In the assay with tankyrase 1/2, the EC50 was < 300 nM.

For the molecule `Cc1cc(F)cc2c(=O)[nH]c(-c3ccc(N4CCN(C)CC4)cc3)nc12` [Compound A28, 6-fluoro-8-methyl-2-[4-(4-methyl-piperazin-1-yl)-phenyl]-3H-quinazolin-4-one], the IC50 was < 300 nM in assay [1] and 300 to 3000 nM in assay [2]. The EC50 in the assay on tankyrase 1/2 is < 300 nM.

As for `CC(C)(O)c1ccc(-c2nc3ccc(F)cc3c(=O)[nH]2)nc1` [Compound A13, 6-fluoro-2-[5-(1-hydroxy-1-methyl-ethyl)-2-pyridyl]-3H-quinazolin-4-one], the EC50 in the assay on tankyrase 1/2 was in the range of 3000 to 50000 nM. In assay [2], this molecule gave an IC50 of 3000 to 50000 nM.

With `CC(C)(C)c1ccc(-c2nc3ccc(F)cc3c(=O)[nH]2)cc1` [Compound A9, 2-(4-tert-butyl-phenyl)-6-fluoro-3H-quinazolin-4-one], the IC50 in assay [1] is < 300 nM; in assay [2], 300 to 3000 nM. Besides, the EC50 in the assay with tankyrase 1/2 fell in the range of 300 to 3000 nM.

Take `CC(C)(O)c1ccc(-c2nc3c(F)cccc3c(=O)[nH]2)cc1` [Compound A3, 8-fluoro-2-[4-(1-hydroxy-1-methyl-ethyl)-phenyl]-3H-quinazolin-4-one]: the IC50 in assay [1] and in assay [2] was < 300 nM each time. Also, the EC50 in the assay on tankyrase 1/2 lay within 300 to 3000 nM.

As for `CC(C)(O)c1ccc(-c2nc3ccc(F)c(F)c3c(=O)[nH]2)cc1` [Compound A12, 5,6-difluoro-2-[4-(1-hydroxy-1-methyl-ethyl)phenyl]-3H-quinazolin-4-one], the IC50 in assay [1] and in assay [2] was < 300 nM in each case. In addition, in the assay with tankyrase 1/2, the EC50 is 300 to 3000 nM.

Turning to `Cc1cc(F)cc2c(=O)[nH]c(-c3ccc(C4CCNCC4)cc3)nc12` [Compound A33, 6-fluoro-8-methyl-2-(4-piperidin-4-yl-phenyl)-3H-quinazolin-4-one hydrochloride], the IC50 in assay [1] is < 300 nM; in assay [2] it was 300 to 3000 nM. In addition, in the assay on tankyrase 1/2, the EC50 is < 300 nM.
